Results taken from paper PMC8704707 (Pharmaceuticals, 2021).

Biological target: AChE from electric eel (EeAChE) (Electrophorus electricus, UniProt O42275)
Assay: Inhibition of acetylcholinesterase, Ellman's method
Type: biochemical
Conditions: ratio of IC50 for AChE/IC50 for BuChE; values above 1 indicate stronger inhibition of BuChE

SMILES: [H]/N=C(\NN=Cc1ccc([N+](=O)[O-])o1)N[N+](=O)[O-]
- Selectivity AChE/BuChE: < 0.05
